Laboratory results from patent US20130005644A1, “CYCLIC AGONISTS AND ANTAGONISTS OF C5A RECEPTORS AND G PROTEIN-COUPLED RECEPTORS” (PROMICS PTY LIMITED, priority 1997, published 2013).

Assays:
[1] = target: T1, C5a receptor (Homo sapiens, UniProt P21730); test: Myeloperoxidase release from human PMNs mediated by 100 nM C5a (antagonist potency); format: cell-based
T1 construct: endogenous in cells; host or cells: fresh human polymorphonuclear leukocytes (PMNs), intact cells
T1 sequence (P21730 1-350): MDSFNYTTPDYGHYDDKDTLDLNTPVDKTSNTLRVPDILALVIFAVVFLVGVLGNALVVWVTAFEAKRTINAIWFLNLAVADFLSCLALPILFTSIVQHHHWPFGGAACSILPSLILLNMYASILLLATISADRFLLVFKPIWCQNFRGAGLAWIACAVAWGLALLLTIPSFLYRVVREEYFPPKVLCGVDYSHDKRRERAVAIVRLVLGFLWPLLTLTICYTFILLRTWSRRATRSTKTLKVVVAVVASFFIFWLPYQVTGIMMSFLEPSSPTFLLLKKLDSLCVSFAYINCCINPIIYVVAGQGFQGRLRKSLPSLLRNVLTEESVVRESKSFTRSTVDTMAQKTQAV

[2] = target: T1, C5a receptor; conditions: isolated PMN membranes; Konteatis et al (1994); read-out: IC50, competition with C5a binding; cited from earlier work

CC(=O)N[C@@H](Cc1ccccc1)C(=O)N[C@H]1CCCCNC(=O)[C@@H](CCCNC(=N)N)NC(=O)[C@H](Cc2c[nH]c3ccccc23)NC(=O)[C@@H](CC2CCCCC2)NC(=O)[C@@H]2CCCN2C1=O [Compound 11, Ac-F-[KP(dCha)Wr]
IC50 ([1]; 50% inhibition of C5a (100 nM)-caused release of MPO from PMNs, mean ± SE, read-out: pD2 ± SE (antagonist potency) (converted)): 85.1 nM
IC50 ([1]; 50% reduction in myeloperoxidase secretion from human PMNs mediated by 100 nM C5a, read-out: Antagonist Potency IC50): 90 nM

CN[C@@H](Cc1ccccc1)C(=O)N[C@@H](CCCCN)C(=O)N1CCC[C@H]1C(=O)N[C@H](CC1CCCCC1)C(=O)N[C@@H](Cc1c[nH]c2ccccc12)C(=O)N[C@H](CCCNC(=N)N)C(=O)O [Compound 7, N-methylphenylalanine-lysine-proline-D-cyclohexylalanine-tryptophan-D-arginine, reference compound]
IC50 [2]: 70 nM

Like-named read-outs stand apart in the source and are kept apart here.
